Test results as given in patent US7482339B2, “2-Naphthylimino-1,3-thiazine derivative” (Shionogi and Co., Ltd., priority 2003, dated 2009).

Chains of the proteins cited; added tags and fusions are not shown.
UniProt P21554, whole entry: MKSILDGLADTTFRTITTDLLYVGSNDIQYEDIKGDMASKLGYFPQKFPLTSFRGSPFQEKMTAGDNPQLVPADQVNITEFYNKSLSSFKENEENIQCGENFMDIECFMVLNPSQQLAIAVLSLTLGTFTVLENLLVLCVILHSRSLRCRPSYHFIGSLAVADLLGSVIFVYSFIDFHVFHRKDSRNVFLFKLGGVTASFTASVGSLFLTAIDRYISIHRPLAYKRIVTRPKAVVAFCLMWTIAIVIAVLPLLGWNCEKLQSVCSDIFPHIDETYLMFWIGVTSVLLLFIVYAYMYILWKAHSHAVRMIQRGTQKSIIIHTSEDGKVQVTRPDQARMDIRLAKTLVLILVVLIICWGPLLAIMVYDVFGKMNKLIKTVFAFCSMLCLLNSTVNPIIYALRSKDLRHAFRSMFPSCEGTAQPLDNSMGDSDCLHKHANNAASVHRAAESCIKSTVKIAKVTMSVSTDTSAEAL
UniProt P34972, whole entry: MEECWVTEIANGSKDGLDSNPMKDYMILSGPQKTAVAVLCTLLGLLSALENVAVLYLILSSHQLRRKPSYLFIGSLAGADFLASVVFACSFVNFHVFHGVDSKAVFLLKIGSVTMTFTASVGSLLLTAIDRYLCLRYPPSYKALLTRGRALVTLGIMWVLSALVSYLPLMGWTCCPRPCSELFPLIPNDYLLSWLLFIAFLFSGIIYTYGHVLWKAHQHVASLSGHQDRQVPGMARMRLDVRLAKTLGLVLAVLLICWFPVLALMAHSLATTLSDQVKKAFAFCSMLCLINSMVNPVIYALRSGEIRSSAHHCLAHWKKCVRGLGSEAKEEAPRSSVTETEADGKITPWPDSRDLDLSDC

Legend:
human CB1R [1] = target: T1, human CB1R (Homo sapiens, UniProt P21554); assay: Human CB receptor binding inhibition ([3H]CP55940), CB1R; conditions: read-out: CB receptor binding inhibition Ki CB1; membranes of CB1R-expressing CHO cells, 0.5 nM [3H]CP55940, 2 hr at 25° C.
human CB2R [2] = target: T2, human CB2R (Homo sapiens, UniProt P34972); assay: Human CB receptor binding inhibition ([3H]CP55940), CB2R; conditions: read-out: CB receptor binding inhibition Ki CB2; membranes of CB2R-expressing CHO cells, 0.5 nM [3H]CP55940, 2 hr at 25° C.
Protocol: The crude membrane fractions were then prepared from the CB1R or CB2R-expressing CHO cells. Receptor binding assay was performed by incubating the membranes with each test compound and 38,000 dpm [^3H]CP55940 (at a final concentration of 0.5 nM: PerkinElmer Life & Analytical Sciences) in the assay buffer (50 mM Tris-HCl, […], 3 mM MgCl2, pH 7.4) containing 0.5% bovine serum albumin (BSA) for 2 hr at 25° C. The incubation mixture was filtered through 1% polyethylenimine (PEI)-treated GF/C glass filter and washed with 50 mM Tris-HCl (pH 7.4) containing 0.1% BSA. The radioactivity was then counted with a liquid scintillation counter. Nonspecific binding was determined in the presence of 10 μM WIN55212-2 (a CBR agonist described in the patent U.S. Pat. No. 508,122, Sigma), and the specific binding was calculated by subtracting the nonspecific binding from the total binding. The IC50 value for each test compound was determined as the concentration at which 50 % of the specific binding was inhibited. As a consequence of these studies, the Ki values of each test compound were determined from the IC50 value and the Kd vale of [^3H]CP55940.

human CB1R [3] = target: T1, human CB1R; assay: CBR-mediated suppression of forskolin-stimulated cAMP synthesis, CHO cells expressing CB1R; conditions: read-out: Inhibition of cAMP synthesis IC50 CB1, 4 μM forskolin
Protocol: (§1) The CHO cells expressing human CB1R or CB2R were incubated with test compounds for 15 min. After the incubation, 4 μM forskolin (Sigma) was added and the cells were incubated for 20 min. The reaction was stopped by the addition of 1N HCl and the amount of cAMP in the cell supernatant was measured using an Cyclic AMP kit (CIS bio international) according to the manufacture's protocol. The cAMP amount increased by forskolin compared to that in the absence of forskolin was defined as 100%, and the IC50 value of each test compound was determined as the concentration at which 50% of the forskolin-stimulated cAMP synthesis was inhibited.

human CB2R [4] = target: T2, human CB2R; assay: CBR-mediated suppression of forskolin-stimulated cAMP synthesis, CHO cells expressing CB2R; conditions: read-out: Inhibition of cAMP synthesis IC50 CB2, 4 μM forskolin
Protocol: as §1

[5] = system: formalin-induced hyperalgesia in ICR mice; assay: Inhibitory effect against formalin-induced hyperalgesia in ICR mice; conditions: male ICR mice, oral administration 2 h prior to formalin; for Inhibitory effect against formalin-induced hyperalgesia (ED50) Second phase: 10 to 30 min after formalin injection; for Inhibitory effect against formalin-induced hyperalgesia (ED50) First phase: first 5 minutes after formalin injection
Protocol: The inhibitory effects of the compounds of the present invention against formalin-induced hyperalgesia were examined in male ICR mice (5 W). Test compounds were dissolved in sesami oil and applied orally 2 h prior to the subcutaneous formalin injection (2% 20 μL) into the right hind paw. In this experiment, observation period was set to 30 min and divided into two parts, the first 5 minutes immediately after the formalin injection (first phase) and 10 to 30 min minutes after the formalin injection (second phase). The strength for pain sensation was evaluated by the total time for licking and biting behavior. The inhibitory effect of the test compounds on such behavior was evaluated and the ED50 value was calculated.

Row | Structure (SMILES) | Ki (human CB1R [1]) [nM] | Ki (human CB2R [2]) [nM] | IC50 (human CB1R [3]) [nM] | IC50 (human CB2R [4]) [nM] | Inhibitory effect against formalin-induced hyperalgesia (ED50) Second phase [5] [mg/kg] | Inhibitory effect against formalin-induced hyperalgesia (ED50) First phase [5] [mg/kg]
1 | CSC(=O)N1CC2(CCCCC2)CSC1=Nc1cccc2c1OCCO2 | 21 | 0.7 | – | – | – | –
2 | CSC(=S)N1CC2(CCCCC2)CSC1=Nc1cccc2c1CCCC2 | – | 0.2 | 3.2 | 0.2 | 4.0 | 2.5
3 | CSC(=S)N1CC2(CCCCC2)CSC1=Nc1cccc2c1OCCO2 | 30 | 1 | – | – | – | –
4 | CSC(=S)N1CC(C(C)C)(C(C)C)CSC1=Nc1cccc2c1CCCC2 | – | – | – | 0.2 | – | –
5 | CSC(=O)N1CC(C(C)C)(C(C)C)CSC1=Nc1cccc2c1CCCC2 | 16 | 1.6 | 4 | 2.7 | 3.1 | 5.2
6 | CSC(=O)N1CC(C(C)C)(C(C)C)CSC1=Nc1cccc2c1CCC2 | 23 | 2.2 | 25 | – | – | –
